Results from patent publication US20210278391A1, “COMPOSITIONS AND METHODS FOR TREATING CARDIOVASCULAR AND METABOLIC CONDITIONS” (The Regents of the University of California, priority 2017, published 2021).

Tested on: pressure-overloaded mouse heart
Experiment: TAC heart failure model with preexisting dysfunction, BT2 from 2 weeks post-TAC for 6 weeks, echocardiography and survival
Type: in vivo
Conditions: week 8 post-TAC
Experimental: In mice, transverse aortic constriction (TAC) was performed as described (Lee et al. (2011) Circulation Research 109:1332-1341) in anesthetized (pentobarbital 60 mg/kg, IP) and ventilated mice (age 12-14 weeks) to induce hypertrophy and heart failure. After left anterolateral thoracotomy with blunt dissection through the intercostal muscles, aortic constriction was induced by ligating the transverse aorta around a 27½-gauge blunt needle using 6-0 silk suture. The needle was subsequently removed. Sham-operated mice underwent a similar surgical procedure without constriction of the aorta. All mice were maintained in the same environment with regular lab chow and water ad libitum. At the end of the experiments, animals were euthanized and the hearts and lungs were removed and weighed. Hearts were dissected and tissues were either immediately immersed into 4% buffered formaldehyde or quickly frozen in liquid nitrogen for further experiments.

O=C(O)c1sc2cc(Cl)ccc2c1Cl [BT2, 3,6-dichlorobenzo[b]thiophene-2-carboxylic acid]
cardiac hypertrophy (heart weight and tibia length ratio, hypertrophic markers): without affecting
